In US8945853B2, “Detection of intracellular binding events by measuring protein abundance” (DiscoveRx Corporation, priority 2012, dated 2015) one finds EC50 data, which are given here for one molecule.

The chains behind the UniProt entries cited, without tags or fusion partners.
UniProt P10415, whole entry: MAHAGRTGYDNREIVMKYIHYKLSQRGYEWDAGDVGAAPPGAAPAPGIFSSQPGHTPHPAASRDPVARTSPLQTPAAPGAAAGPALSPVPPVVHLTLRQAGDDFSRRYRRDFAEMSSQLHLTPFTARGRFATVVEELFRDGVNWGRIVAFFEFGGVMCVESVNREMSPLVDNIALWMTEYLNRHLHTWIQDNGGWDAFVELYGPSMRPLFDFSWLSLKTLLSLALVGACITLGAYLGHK

Common to all, as to type: cell-based
Details in all cases: loss of signal

In one assay the target is BCL-2 / PL-Bim (Homo sapiens, UniProt P10415). The assay is described as follows: BCL-2 co-expressed with PL-Bim in U2OS cells, disruption by small molecules (FIG. 7B). The method, then:
(§1) Interaction of BCL-2 with a peptide test compound (Bim, Bak, and Bax) was studied.
(§2) The native BCL-2 was co-expressed with each of the ProLabel fusions in U2OS cells. Small molecules that are reported to disrupt BCL-2 interactions were then applied to the cells and incubated overnight.
(§3) Cells were transduced with the indicated target PL-fusion and the untagged protein Bcl-2. The cells were treated with the indicated compounds overnight and the remaining target-PL fusion was detected by lysing the cells in the presence of EA and substrate. Luminescence was measured 30 minutes later.

The next assay deals with BCL-2 / PL-Bax (Homo sapiens, UniProt P10415). The assay is described as follows: BCL-2 co-expressed with PL-Bax in U2OS cells, disruption by small molecules (FIG. 7A). The method, then: as §1, §2, §3
The target of the next assay is BCL-2 / PL-Bak (Homo sapiens, UniProt P10415). The assay is described as follows: BCL-2 co-expressed with PL-Bak in U2OS cells, disruption by small molecules (FIG. 7C). The method, then:
as §1, §2, §3

Turning to `CC1(C)CCC(c2ccc(Cl)cc2)=C(CN2CCN(c3ccc(C(=O)NS(=O)(=O)c4ccc(N[C@H](CCN5CCOCC5)CSc5ccccc5)c(S(=O)(=O)C(F)(F)F)c4)cc3)CC2)C1` [ABT-263], the EC50 on BCL-2 / PL-Bim came out at 6.01 nM; at BCL-2 / PL-Bax it was 4.68 nM; at BCL-2 / PL-Bak, 41900 nM.
